Earlier results in patent US5618809A, “Indolocarbazoles from saccharothrix aerocolonigenes copiosa subsp. nov SCC 1951 ATCC 53856” (Schering Corporation, priority 1995, dated 1997).

Experiments:
[1] = cited from earlier work
[2] = in vivo; cited from earlier work
yeast and fungi = conditions: cited from earlier work

CN[C@@H]1C[C@H]2O[C@@](C)([C@@H]1OC)n1c3ccccc3c3c4c(c5c6ccccc6n2c5c31)C(=O)NC4 [Staurosporine, staurosporine]
antitumor activity in-vivo (in words) [1]: antitumor activity in-vivo
effect on hypertension, edema and ulcers (in words) [2]: therapeutic effect on hypertension, edema and ulcers
antibiotic activity in yeast and fungi (in words) (yeast and fungi): antibiotic activity in yeast and fungi
